# Measured values as given in patent US9686971B2, “Methods for testing anti-thrombotic agents” (The Trustees of Columbia University in the City of New York, priority 2006, dated 2017).
# Tested on: human platelets
# Test: Tail bleeding assay, human platelet-induced hemostasis in homozygous VWF^1326R>H mice
# Assay type: in vivo, mouse
# Conditions: PLAVIX 50 mg/kg oral day before and 2 h prior, ReoPro 0.25 mg/kg iv bolus then 0.125 μg/kg/min, 5 min after human platelets
# Procedure: This assay provides an indirect measure of the ability of platelets and VWF to support hemostasis by interacting with the injured vessel wall. It also indirectly determines the function of multiple receptors and ligands on platelets that are required to form a hemostatic plug. […] It is performed by immersing the severed tip (10 mm) of the animal's tail in isotonic saline at 37° C. and monitoring the length of time required for bleeding to cease. Homozygous mutant mice will be infused with an equal volume of either saline or purified human platelets. Platelet specific antibodies or drugs will be administered as described above and their ability to prolong bleeding time evaluated. All experiments will be stopped at 10 min by cauterizing the tail (51).
# Tail cuts were performed 5 min after completion of the infusion of platelets. PLAVIX and ReoPro® were obtained from the research pharmacy at CUMC. For studies involving PLAVIX, animals received a 50 mg/kg oral dose of the drug the day before and 2 h prior to the administration of human platelets.
smiles,measurement,setting,value
COC(=O)[C@H](c1ccccc1Cl)N1CCc2sccc2C1 [clopidogrel],human platelet-induced hemostatic clot / plug formation (words),,completely disrupted
same,human platelet-induced hemostatic clot / plug formation (words),listed as Clopidogrel,unable to produce a hemostatic clot
